Experimental data published in patent publication US20260125669A1, “METHODS AND COMPOSITIONS FOR SYNTHETIC EVOLUTION” (U[…] FABRA, priority 2022, published 2026).

Test system: lentiviral payload (GFP gene)
Assay: drug-induced mutagenesis: nucleoside analogs added to producer cells during lentiviral vector production
Assay type: cell-based
Procedure: Cells were produced in 10-cm dishes seeded with 4.9×10^6 HEK293T cells a day prior transfection using 0.72 pmol of pCMV-VSV-G envelope plasmid, 1.64 pmol of pSICO or pRRL vector payloads (transfer plasmid) and 1.30 pmol psPAX2 plasmid or psPAX2 mutants. Plasmids were mixed in 500 μL Optimem and 100 mg polyethyleneimine (PEI).
10 μL of vector were used for infecting HEK293T cells at an approximate MOI of 1. Genomic DNA of infected cells was extracted 48 hours post-infection using the DNeasy Blood & Tissue Kit (Qiagen's ref. 69504) and the sequence of interest to be evolved was amplified and sequenced with an Illumina Miseq 2×250PE sequencer.
For assessing drug-induced mutagenesis, 5-azacytidine (Sigma's ref. A2385-100MG) or 5-hydroxydeoxycytidine (5-OH-dC) was added to the cells at different doses and sequenced as described below.
A first tested aspect was the addition, in the producer cells, of the nucleoside analogs 5-azacytidine (5-aza-C) and 5-hydroxydeoxycytidine (5-OH-dC), which were described in the art to increase the viral reverse transcriptase error rate.

For `Nc1ncn([C@@H]2O[C@H](CO)[C@@H](O)[C@H]2O)c(=O)n1` [5-aza-C, 5-azacytidine], the “functionality of the GFP gene” value (5-10 mM in the producer cells) was “near-complete loss of functionality of the GFP gene” and the “effect on the viral titter” value (added in the producer cells, FIG. 3) was “had an effect”.
